# Results as given in PubChem BioAssay AID2472 (National Center for Advancing Translational Sciences (NCATS), 2010).
# Only a part is listed here, and it is no random draw. Active and inactive are the calls of the source. Cut-off read from the data, not from the text of the source: active = activity change below about -30%; inactive = the rest, inconclusive results apart.
# Test: qHTS Assay for Inhibitors of Fructose-1,6-bisphosphate Aldolase from Giardia Lamblia: Coupling assay counterscreen
# Details: coupling enzyme system counterscreen, AmpLite Red fluorescence; at 58.2 µM (top of the series)
# Summary of the method: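 Compounds tested against the coupling enzymes alone at 57.5 uM final; readout was AmpLite Red fluorescence (525/598 nm) after 20 min at RT.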
# % is set by controls: 0 for no effect and ±100 for the full control effect.
row,Compound,"activity change, negative = inhibition"
1,CCOP(=O)(Nc1cccc2ccccc12)OCC,inactive: -0.104%
2,COc1cc(C2NCCC3(OCCO3)C2(C)C)cc(OC)c1OC (stereo not drawn),inactive: -0.359%
3,Nc1cccc2c([As](=O)(O)O)cccc12,inactive: -28.8%
4,Cc1ccc(NCCc2c([N+](=O)[O-])cc([N+](=O)[O-])cc2[N+](=O)[O-])cc1,inactive: -7.82%
5,CCCOP(=S)(Nc1nc(N)cc(=O)[nH]1)OCCC,inactive: -1.45%
6,Cc1cccc(OCC(=O)OC2CN3CCC2CC3)c1 (stereo not drawn),inactive: -0.715%
7,O=[As](O)(c1cccc(O)c1)c1cccc(O)c1,inactive: -2.61%
8,O=C(OC1CN2CCC1CC2)c1ccc(Cl)cc1 (stereo not drawn),inactive: 1.46%
9,O=[As](O)(O)c1cccnc1,inactive: 0.48%
10,COc1cc(C(=O)NCC2(N3CCOCC3)CCCCC2)cc(Cl)c1OC(C)C,inactive: -8.45%
11,COc1ccc(N/C(=N/P(=O)(N2CCOCC2)N2CCOCC2)N2CCOCC2)cc1,inactive: 3.22%
12,COc1cc(I)ccc1[As](=O)(O)O,inactive: 1.03%
13,COc1ccc2nc(NP(=O)(c3ccccc3)c3ccccc3)sc2c1,inactive: -0.174%
14,Cc1c2c(nc3ccccc13)SC(C(Cl)Cl)C2 (stereo not drawn),inactive: 0.167%
15,Cc1cc(=O)[nH]c(N[N+](=O)[O-])n1,inactive: 1.78%
16,O=C(OC1CN2CCC1CC2)C12CC3CC(CC(C3)C1)C2 (stereo not drawn),inactive: 4.04%
17,O=[N+]([O-])c1cc([N+](=O)[O-])c(-c2ccn[nH]2)s1,inactive: -8.55%
18,CC(C)NC(=O)NP(=O)(Oc1ccccc1)Oc1ccccc1,inactive: -1.68%
19,CCN(CC)C(=S)SC(NC=O)C(Cl)(Cl)Cl (stereo not drawn),inactive: 0.445%

row,Compound,"activity change, negative = inhibition"
1,ClCCSc1nnc(-c2cccnc2)o1,inactive: -3.24%
2,CC(C)c1ccc(OP(=O)(Nc2ccccn2)Oc2ccccc2F)cc1 (stereo not drawn),inactive: 0.421%
3,Cc1ccc(OP(=O)(Nc2ccc([N+](=O)[O-])cn2)Oc2ccc(C)cc2)cc1,inactive: -2.21%
4,Cc1ccc2nc3c(c(C)c2c1)CC(C(Cl)Cl)S3 (stereo not drawn),inactive: 0.772%
5,C[As](=O)(O)c1cccc(C(=O)O)c1,inactive: 0.546%
6,O=[As](O)(c1ccc(O)cc1)c1ccccc1O,inactive: 0.77%
7,Cc1cc(SC(NC=O)C(Cl)(Cl)Cl)ncn1 (stereo not drawn),inactive: 5.14%
8,O=P(Nc1ccccn1)(c1cccc2ccccc12)c1cccc2ccccc12,inactive: -3.51%
9,O=[N+]([O-])c1ccc(Nc2ccc(Oc3ccc([N+](=O)[O-])cc3[N+](=O)[O-])cc2)c([N+](=O)[O-])c1,inactive: -0.322%
10,CCOC(=O)Nc1cccc([As](=O)(O)O)c1,inactive: 4.15%
11,Cc1cc(SC(NC(=O)c2ccccc2)C(Cl)(Cl)Cl)nc(C(C)C)n1 (stereo not drawn),inactive: 4.58%
12,CCCCOc1ccc(C(=O)NCC2(N3CCCCC3)CCCCC2)cc1OC,inactive: 1.61%
13,CCOC(=O)Nc1ccc([As](=O)(O)O)c(O)c1,inactive: -2.3%
14,CCC(C)N(CC(C)C)C(=S)SC(NC(C)=O)C(Cl)(Cl)Cl (stereo not drawn),inactive: -2.54%
15,O=C(OC1CN2CCC1CC2)c1cccc([N+](=O)[O-])c1 (stereo not drawn),inactive: 2.6%
16,CCOC(=O)c1ccc(NC(=O)C(C)(CCl)SC)cc1 (stereo not drawn),inactive: -5.31%
17,O=C(Nc1ccncc1[N+](=O)[O-])c1ccc([N+](=O)[O-])cc1[N+](=O)[O-],inactive: -4.07%
18,O=C(COc1ccccc1)OC1CN2CCC1CC2 (stereo not drawn),inactive: 3.1%
19,COP1(=S)c2c(C)nn(CCC#N)c2N=C(c2ccc(F)cc2)N1C (stereo not drawn),inactive: -0.672%
